Laboratory results from patent US20070078085A1, “Methods and compositions for the utilization and targeting of osteomimicry” (priority 2004, published 2007).

How the values were obtained:
MG-63 = test: In vitro cell proliferation assay, bone cell line; format: cell-based, human; settings: MG-63 cells in culture
Procedure: (§1) LNCaP, C4-2B, DU145, PC3, MG63 and ARCaP cell lines were seeded in 96-well plates in T-medium containing 5% FBS, respectively. After 24 h incubation, media were replaced by fresh, serum-free T-medium and incubated for an additional 24 h. The cells were treated with β2M CM or Neo CM for 4-day incubation. Cell numbers were measured every 24 h using CellTiter 96® AQueous One Solution Cell Proliferation Assay (Promega, Madison, Wis.).

[1] = tested on: human prostate cancer cell lines; test: In vitro cell proliferation assay, prostate cancer cells; format: cell-based; settings: ARCaP, C4-2B, DU145 and LNCaP cells; treated with β2M CM or Neo CM, 4-day
Procedure: as §1

hBSP promoter = test: hBSP promoter-luciferase reporter activity in transfected cells; format: cell-based, human; settings: recombinant b2M 0-0.6 mg/ml
From the text: (§2) Plasmid Construction. Genomic DNA was used in the PCR of the 0.8-kb hOC promoter inserting KpnI and XhoI sites, subsequently cloned into pGL3-Basic-luciferase reporter vector (Promega, Madison, Wis.) as described before (9). The deletion constructs, ΔA [374 bp upstream of AP1/VDRE (AV) element], ΔTst-1 (POU-factor Tst-1/Oct-6 binding site), ΔCRE (cAMP-responsive element) and ΔIRF-1 (interferon regulatory factor-i binding site) in hOC promoter/pGL3 were generated by recombinant PCR technique. The point mutation plasmids in CRE (from -643 to -636 in hOC promoter, 5′-TGACCTCA-3′) were constructed with a QuikChange Site-Directed Mutagenesis Kit (Stratagene). […]
(§3) Transfection and Luciferase Activity Assay. […] For luciferase activity assay, 20 μl of the lysate supernatant was mixed with 100 μl of the luciferase substrate (Promega) and detected by a luminometer (Monolight 3010, luminometer PharMingen, San Diego, Calif.). For β-galactosidase activity assay, 100 μl of the supernatant was mixed with 100 μl of 2×β-galactosidase substrate [200 mM sodium phosphate buffer, pH 7.3, 2 mM MgCl2, 100 mM β-mercaptoethanol and 1.33 mg/ml o-nitrophenyl-β-D-galactopyranoside (ONPG)], and incubated at 37° C. for 30 min. β-galactosidase activity was detected by Microplate spectrophotometer (Molecular Devices Corp., Sunnyvale, Calif.) at 405 nm wavelength. […]

hOC promoter = test: hOC promoter-luciferase reporter activity in transfected cells; format: cell-based, human; settings: recombinant b2M 0-0.6 mg/ml
From the text: as §2, §3

| Substance | growth of bone cell line (MG-63) | growth of human prostate cancer cell lines [1] | hBSP promoter activity (hBSP promoter) | hOC promoter activity (hOC promoter) |
| --- | --- | --- | --- | --- |
| β2M: soluble protein factor of 11.8 kDa secreted by cancer cells, β2-microglobulin | not | stimulate the growth |  |  |
| Recombinant b2M protein: recombinant β2-microglobulin protein |  |  | stimulated | stimulated |
